Laboratory results: patent publication US11472877 (Alector, dated 2022)
Residue numbers refer to the chain shown, from its start.

Sequences of proteins named here, by UniProt entry; tags and fusion partners are left off. A line that says so, or that is headed by a name, gives the form on record, which may keep a tag or linker. Residues count along the entry.
UniProt Q9NP99, 21-234: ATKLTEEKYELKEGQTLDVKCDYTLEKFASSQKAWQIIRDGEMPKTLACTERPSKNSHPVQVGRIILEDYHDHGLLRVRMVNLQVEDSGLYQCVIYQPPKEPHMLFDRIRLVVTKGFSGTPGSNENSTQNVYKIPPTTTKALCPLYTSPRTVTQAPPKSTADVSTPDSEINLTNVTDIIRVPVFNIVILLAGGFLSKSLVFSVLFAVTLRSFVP
UniProt Q9NP99, 21-205 limits assumed, form in doubt: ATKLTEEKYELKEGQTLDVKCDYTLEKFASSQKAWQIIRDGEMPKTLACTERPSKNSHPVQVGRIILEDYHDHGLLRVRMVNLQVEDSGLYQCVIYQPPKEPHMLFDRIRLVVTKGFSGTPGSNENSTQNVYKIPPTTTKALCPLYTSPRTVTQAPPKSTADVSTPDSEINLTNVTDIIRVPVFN

B1: T1-34 (antibody, IgG1, V domains shown)
VH: EVQLVESGGGLVKPGGSLRLSCAASGFTFSSYSMNWVRQAPGKGLEWVSSISSSSNYIYYADSVKGRFTISRDNAKNSLYLQMNSLKAEDTAVYYCARRPDDRRGLFQHWGQGTLVTVSS
VL: DIQMTQSPSTLSASVGDRVTITCRASQSINSWLAWYQQKPGKAPKLLISDASSLESGVPSRFSGSGSGTEFTLTISSLQPDDFATYYCQQYGPYPYTFGGGTKVEIK
notes: huIgG1; also called TI-34; ADI-19108
B2: recombinant, His-tagged human PGLYRP1 (ligand, UniProt O75594 22-196, looked up, not shown: small tags and cut ends)
chain: QETEDPACCSPIVPRNEWKALASECAQHLSLPLRYVVVSHTAGSSCNTPASCQQQARNVQHYHMKTLGWCDVGYNFLIGEDGLVYEGRGWNFTGAHSGHLWNPMSIGISFMGNYMDRVPTPQAIRAAQGLLACGVAQGALRSNYVLKGHRDVQRTLSPGNQLYHLIQNWPHYRSP
B3: T1-77 (antibody, IgG1, V domains shown)
VH: QVQLQESGPGLVKPSETLSLTCAVSGYSISSGYYWAWIRQPPGKGLEWIGSIYHSGSTYYNPSLKSRVTISVDTSKNQFSLKLSSVTAADTAVYYCARGGPYPWSGWFDPWGQGTLVTVSS
VL: EIVMTQSPATLSVSPGERATLSCRASQSVGSNLAWYQQKPGQAPRLLIYGASTRATGIPARFSGSGSGTEFTLTISSLQSEDFAVYYCQQHDVWPYTFGGGTKVEIK
notes: huIgG1; also called TI-77; ADI-19154
B4: T1-72 (antibody, IgG1, V domains shown)
VH: EVQLVESGGGLVQPGRSLRLSCAASGFTFDDYAMHWVRQAPGKGLEWVSGISWNSGDIGYADSVKGRFTISRDNAKNSLYLQMNSLRAEDTALYYCAKGPRMTHSYFDLWGRGTLVTVSS
VL: not shown
notes: huIgG1; also called TI-72; ADI-19148
B5: T1-75 (antibody, IgG1, V domains shown)
VH: B4 VH with E1Q, G99A, M102T, T103R, H104W, S105T, L109Y, R112Q
VL: EIVLTQSPATLSLSPGERATLSCRASQSVSSYLAWYQQKPGQAPRLLIYDASNRATGIPARFSGSGSGTDFTLTISSLEPEDFAVYYCQHYNLWRTFGGGTKVEIK
notes: huIgG1; also called TI-75; ADI-19152
B6: T1-73 (antibody, IgG1, V domains shown)
VH: EVQLVESGGGLVQPGRSLRLSCAASGFTFDDYAMHWVRQAPGKGLEWVSGISWNSGSIGYADSVKGRFTISRDNAKNSLYLQMNSLRAEDTALYYCAKAPRMYGYFDLWGRGTSVTVSS
VL: DIQMTQSPSTLSASVGDRVTITCRASQSISSWLAWYQQKPGKAPKLLIYKASSLESGVPSRFSGSGSGTEFTLTISSLQPDDFATYYCQQYRTYPTFGGGTKVEIK
notes: huIgG1; also called TI-73; ADI-19149
B7: T1-74 (antibody, IgG1, V domains shown)
VH: B6 VH with A99G, M102T, Y103R, S114L
VL: B1 VL with N30S, S49Y, D50K, Y91H, G92S, P93L, Y94L, P95S, Y96I
notes: huIgG1; also called TI-74; ADI-19151
B8: T1-70 (antibody, IgG1, V domains shown)
VH: QVQLVQSGAEVKKPGASVKVSCKASGYTFTSYGIHWVRQAPGQGLEWMGWISAYNGNTNYAQKLQGRVTMTTDTSTSTAYMELRSLRSDDTAVYYCARAGTIYGRLDLWGRGTLVTVSS
VL: DIQLTQSPSSVSASVGDRVTITCRASQDISSWLAWYQQKPGKAPKLLIYAASSLQSGVPSRFSGSGSGTDFTLTISSLQPEDFATYYCQQAVSHPLTFGGGTKVEIK
notes: huIgG1; also called TI-70; ADI-19146
B9: T1-33 (antibody, IgG1, V domains shown)
VH: QVQLVESGGGVVQPGRSLRLSCAASGFTFSNYGMHWVRQAPGKGLEWVAVIWYDGSNKYYADSVKGRFTISRDNSKNTLYLQMNSLRAEDTAVYYCAKGSTHRGSAYGMDVWGQGTTVTVSS
VL: B8 VL with L4M, D28G, A91I, V92N, S93D, L96F
notes: huIgG1; also called TI-33; ADI-19107
B10: T1-71 (antibody, IgG1, V domains shown)
VH: B6 VH with D30G, A99G, M102R, Y103T, G104S, Y105H, F106L, L108I, R111Q, S114M
VL: B8 VL with L4M, D28G, S30D, V92T, H94L
notes: huIgG1; also called TI-71; ADI-19147
B11: T1-57 (antibody, IgG1, V domains shown)
VH: B4 VH with S52T, D57S, M102Y, T103S, H104K, S105P, L109Y, R112Q
VL: B8 VL with L4M, D28G, S30D, A91R, V92A, S93V, H94F, L96P
notes: huIgG1; also called TI-57; ADI-19132

molecular target: T1, human TREM1 on cells (human, UniProt Q9NP99 21-234); assay: cell-based or functional assay

Row | Binder | cell surface levels of TREM1, primary human neutrophils, FACS | neutrophil viability (ATP) with ligand complex, relative to PGN-BS alone | metabolically active cells (ATP, CellTiter-Glo), primary human monocytes | metabolically active cells (ATP, CellTiter-Glo), primary human neutrophils | GFP expression, NFAT-GFP reporter cells expressing human TREM1, soluble antibody
1 | B1 | ≥ 65% | ~60% | – | – | –
2 | B2 | – | – | ~3 fold | ~1.5 fold | –
3 | B3 | ≥ 65% | – | – | – | –
4 | B4 | – | – | – | – | ≥ 3 fold
5 | B5 | ≥ 65% | – | – | – | ≥ 3 fold
6 | B6 | – | – | – | – | ≥ 3 fold
7 | B7 | – | – | – | – | ≥ 3 fold
8 | B8 | – | – | – | – | ≥ 3 fold
9 | B9 | ≥ 65% | – | – | – | –
10 | B10 | ≥ 65% | ~50% | – | – | ≥ 3 fold
11 | B11 | ≥ 65% | – | – | – | –

molecular target: T2, human TREM2 on BWZ cells (human, UniProt Q9NZC2 19-230); assay: FACS, BWZ human TREM2
T2 construct: whole, on cells; not tied to the cell line; also called BWZ Human TREM2
T2 sequence (looked up): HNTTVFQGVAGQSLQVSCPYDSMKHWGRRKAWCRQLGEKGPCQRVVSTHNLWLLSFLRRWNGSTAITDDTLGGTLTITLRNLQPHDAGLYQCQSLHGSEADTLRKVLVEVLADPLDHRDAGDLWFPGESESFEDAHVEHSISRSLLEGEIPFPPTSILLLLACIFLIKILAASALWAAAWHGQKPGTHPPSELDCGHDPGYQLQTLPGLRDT

Row | Binder | FOB Fold Over Background
12 | B1 | 0.8 fold
13 | B3 | 0.9 fold
14 | B4 | 1.3 fold
15 | B5 | 1 fold
16 | B6 | 1 fold
17 | B7 | 0.7 fold
18 | B8 | 0.9 fold
19 | B9 | 0.8 fold
20 | B10 | 1.1 fold
21 | B11 | 0.9 fold

molecular target: T3, mouse TREM2 on BWZ cells (mouse, UniProt Q99NH8 19-227); assay: FACS, BWZ mouse TREM2
T3 construct: whole, on cells; also called BWZ Mouse TREM2
T3 sequence (looked up): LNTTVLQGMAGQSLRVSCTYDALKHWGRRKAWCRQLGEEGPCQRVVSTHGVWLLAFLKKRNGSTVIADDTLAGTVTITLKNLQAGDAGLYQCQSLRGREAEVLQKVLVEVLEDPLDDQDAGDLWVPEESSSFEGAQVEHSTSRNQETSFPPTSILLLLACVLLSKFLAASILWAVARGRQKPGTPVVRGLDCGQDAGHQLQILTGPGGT

Row | Binder | FOB Fold Over Background
22 | B1 | 1.3 fold
23 | B3 | 1.1 fold
24 | B4 | 1.3 fold
25 | B5 | 1.1 fold
26 | B6 | 0.9 fold
27 | B7 | 0.9 fold
28 | B8 | 0.9 fold
29 | B9 | 1.9 fold
30 | B10 | 1 fold
31 | B11 | 1.3 fold

molecular target: T1, human TREM1 on cells; assay: FACS, CHO human TREM1

Row | Binder | FOB Fold Over Background
32 | B1 | 511 fold
33 | B3 | 444 fold
34 | B4 | 504 fold
35 | B5 | 428 fold
36 | B6 | 479 fold
37 | B7 | 499 fold
38 | B8 | 405 fold
39 | B9 | 464 fold
40 | B10 | 507 fold
41 | B11 | 456 fold

molecular target: T4, mouse TREM1 on CHO cells (mouse, UniProt Q9JKE2 21-230); assay: FACS, CHO mouse TREM1
T4 construct: also called CHO-mT1
T4 sequence: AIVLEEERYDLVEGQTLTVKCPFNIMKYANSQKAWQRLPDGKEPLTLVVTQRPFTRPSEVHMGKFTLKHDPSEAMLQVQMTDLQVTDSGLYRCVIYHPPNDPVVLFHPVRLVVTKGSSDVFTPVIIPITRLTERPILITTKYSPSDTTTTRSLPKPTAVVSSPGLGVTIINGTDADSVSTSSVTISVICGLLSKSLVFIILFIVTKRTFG

Row | Binder | FOB Fold Over Background
42 | B1 | 159 fold
43 | B3 | 0.8 fold
44 | B4 | 1.2 fold
45 | B5 | 1.1 fold
46 | B6 | 1.2 fold
47 | B8 | 1.2 fold
48 | B9 | 22.5 fold
49 | B11 | 1.7 fold

molecular target: T1, human TREM1 on cells; assay: FACS, human neutrophils

Row | Binder | FOB Fold Over Background
50 | B1 | 3.6 fold
51 | B3 | 2.4 fold
52 | B4 | 5.2 fold
53 | B5 | 3 fold
54 | B6 | 3.7 fold
55 | B7 | 3.9 fold
56 | B8 | 2.2 fold
57 | B9 | 3.3 fold
58 | B10 | 6.3 fold
59 | B11 | 4.4 fold

molecular target: human TREM1 (human, UniProt Q9NP99 21-205, limits assumed); assay: IgG, monovalent; method and antigen form not stated

Row | Binder | Kd | koff | kon
60 | B1 | 8.29 nM | 0.000642 s⁻¹ | 77500 M⁻¹ s⁻¹
61 | B7 | 13.5 nM | 0.0136 s⁻¹ | 1.01e+06 M⁻¹ s⁻¹
62 | B9 | 37.3 nM | 0.0204 s⁻¹ | 546000 M⁻¹ s⁻¹
63 | B10 | 21.8 nM | 0.0186 s⁻¹ | 854000 M⁻¹ s⁻¹

molecular target: T1, human TREM1 on cells; assay: FACS ligand blocking on CHO-huTREM1, 10 ug/mL IgG; competitor hPGLYRP1/PGN-BS

Row | Binder | % ligand binding blocked
64 | B3 | ≥ 85%
65 | B4 | ≥ 85%
66 | B5 | ≥ 85%
67 | B6 | ≥ 85%
68 | B7 | ≥ 85%
69 | B8 | ≥ 85%
70 | B10 | ≥ 85%
71 | B11 | ≥ 85%
